Molecules are shown by their SMILES. Read-outs that look alike come from different tables or passages of the source. Marks after values point to notes of the source that are not given here.

The test system of test [1] is maximal electroshock seizure (hind-limb tonic extension). Particulars: mouse; for MES, ip, effect (animals responding / animals tested): 300 mg/kg ip.
A further test has as its system GABA receptors. The conditions noted are these: 10 μM.
For test [2], the system named is kindled seizures (seizure score, after-discharge duration). The conditions noted are these: rat, i.p.
A further test concerns chloride ion channels. Particulars: 10 μM.
Test [3] deals with central benzodiazepine receptors. The conditions noted are these: 10 μM.

For the compound `NS(=O)(=O)NC[C@H]1COc2cc(F)ccc2O1` [10e, (2S)-(–)-N-((6-Fluoro-2,3-dihydrobenzo[1,4]dioxin-2-yl)methyl)sulfamide], the “MES, po, effect (animals responding / animals tested)” value was 4/5 in test [1] (300 mg/kg po, 0.5 h) and 5/5 in test [1] (300 mg/kg po, 2 h).

Turning to `NS(=O)(=O)NCC1COc2ccccc2OC1` [compound 12, N-((3,4-Dihydro-2H-benzo[b][1,4]dioxepin-3-yl)methyl)sulfamide], the “MES, ip, effect (animals responding / animals tested)” value in test [1] (0.5 h) is recorded as 0.5, 2/3.

On to `NS(=O)(=O)NC[C@H]1COc2cc(Cl)c(Cl)cc2O1` [10h, (2S)-(–)-N-((6,7-Dichloro-2,3-dihydrobenzo[1,4]dioxin-2-yl)methyl)sulfamide], for which the “MES, po, effect (animals responding / animals tested)” value in test [1] (100 mg/kg po, 0.5 h) is recorded as 0/5; in test [1] (100 mg/kg po, 2 h), 3/5.

With `NS(=O)(=O)NCCC1COc2ccccc2O1` (stereo not drawn) [compound 9, N-(2-(2,3-Dihydrobenzo[1,4]dioxin-2-yl)ethyl)sulfamide], the “MES, po, effect (animals responding / animals tested)” value in test [1] (100 mg/kg po, 0.5 h) was 0.5, 0/5; 2, 0/5; in test [1] (100 mg/kg po, 2 h), 0.5, 0/5; 2, 0/5; in test [1] (300 mg/kg po, 0.5 h), 5/5; in test [1] (300 mg/kg po, 2 h), 0/5.

Turning to `NS(=O)(=O)NC[C@H]1COc2cccc(Cl)c2O1` [10c], the “MES, po, effect (animals responding / animals tested)” value was 1/5 in test [1] (100 mg/kg po, 0.5 h) and 0/5 in test [1] (100 mg/kg po, 2 h).

On to `CN(CC1COc2ccccc2O1)S(N)(=O)=O` (racemic) [compound 6, N-((2,3-Dihydrobenzo[1,4]dioxin-2-yl)methyl)-N-methylsulfamide], for which the “MES, po, effect (animals responding / animals tested)” value in test [1] (300 mg/kg po, 0.5 h) is given as 3/3; in test [1] (300 mg/kg po, 2 h), 1/3.

For the compound `NS(=O)(=O)NC[C@H]1COc2cc(Cl)ccc2O1` [compound 4, (2S)-(–)-N-((6-Chloro-2,3-dihydrobenzo[1,4]dioxin-2-yl)methyl)sulfamide], the “Affinity for GABA receptors” value in the test on GABA receptors was “virtually no affinity”. In test [2], the Mean seizure score is given as 2.1 ± 0.5, the “Time of decrease in seizure score” value amounted to 45 min and the “Time of peak activity” value was 165 min. Moreover, the “MES, po, effect (animals responding / animals tested)” value in test [1] (100 mg/kg po, 0.5 h) is 0/10. Moreover, the “MES, po, effect (animals responding / animals tested)” value in test [1] (100 mg/kg po, 2 h) is listed as 2/10. In addition, the “MES, po, effect (animals responding / animals tested)” value in test [1] (300 mg/kg po, 2 h) is listed as 2, 5/5 ^g. The “Affinity for chloride ion channels” value with chloride ion channels is reported as “virtually no affinity”. In addition, the “Affinity for central benzodiazepine receptors” value in test [3] is “virtually no affinity”.

On to `NS(=O)(=O)NC[C@H]1COc2ccc(Cl)cc2O1` [10b, (2S)-(–)-N-((7-Chloro-2,3-dihydrobenzo[1,4]dioxin-2-yl)methyl)sulfamide], for which the “MES, po, effect (animals responding / animals tested)” value in test [1] (100 mg/kg po, 0.5 h) was 0/5; in test [1] (100 mg/kg po, 2 h) it was 4/5.

`Cc1ccc2c(c1)O[C@@H](CNS(N)(=O)=O)CO2` [10i, (2S)-(–)-N-((7-Methyl-2,3-dihydrobenzo[1,4]dioxin-2-yl)methyl)sulfamide]: the “MES, po, effect (animals responding / animals tested)” value in test [1] (300 mg/kg po, 0.5 h) is recorded as 0.5, 0/5; 2, 0/5 ^g; in test [1] (300 mg/kg po, 2 h) it was 0.5, 0/5; 2, 0/5 ^g.

In the case of `NS(=O)(=O)NCC1Oc2ccccc2O1` [11a, N-((Benzo[1,3]dioxol-2-yl)methyl)sulfamide], the “MES, po, effect (animals responding / animals tested)” value is recorded as 5/5 in test [1] (100 mg/kg po, 0.5 h) and 0/5 in test [1] (100 mg/kg po, 2 h). Besides, the “MES, ip, effect (animals responding / animals tested)” value in test [1] (0.5 h) is 0.5, 3/3.

For the compound `NS(=O)(=O)NC[C@H]1COc2cc(Br)ccc2O1` [10f], the “MES, po, effect (animals responding / animals tested)” value is given as 0/5 in test [1] (300 mg/kg po, 0.5 h) and 5/5 in test [1] (300 mg/kg po, 2 h).

As to `NS(=O)(=O)NC[C@H]1COc2c(F)cccc2O1` [10d], the “MES, po, effect (animals responding / animals tested)” value is given as 2/5 in test [1] (100 mg/kg po, 0.5 h); 0/5 in test [1] (100 mg/kg po, 2 h); 4/5 in test [1] (300 mg/kg po, 0.5 h); 5/5 in test [1] (300 mg/kg po, 2 h).

In the case of `NS(=O)(=O)NCC1CCc2ccccc2O1` (stereo not drawn) [compound 8, N-(Chroman-2-ylmethyl)sulfamide], the “MES, po, effect (animals responding / animals tested)” value is 1/5 in test [1] (100 mg/kg po, 0.5 h); 0/5 in test [1] (100 mg/kg po, 2 h); 3/3 in test [1] (300 mg/kg po, 0.5 h); 2/3 in test [1] (300 mg/kg po, 2 h).
